The record followed here is patent US20230256011A1, “Chlorite In the Treatment of Acute Respiratory Distress Syndrome” (The Regents of the University of California, priority 2020, published 2023).

Series [1] relates to COVID19 blood monocytes.
Series [2] has as its system COVID-19 patients. The conditions noted are these: human, in vivo.
Series [3] relates to ALS blood monocytes. The settings on record: 300uM, 3 days.
The subject of series [4] is Blood derived macrophages from ALS patients. The settings on record: 300uM overnight. The source says:
The maj or focus was on regulation of inflammation as compared to normal macrophage functional genes. […] Note that by “housekeeping genes” is meant B2M, HPRT1, RPL13A, GAPDH, and ACTB.

For “sodium chlorite [sodium chlorite formulation]”, in series [1], the “toxicity to COVID-19 macrophages” value is on record as “non-toxic”. The “tolerability and toxicity in patients” value in series [2] is “well tolerated and non-toxic”. For the same substance, the “toxicity to ALS macrophages” value in series [3] is given as “non-toxic”. The cell death entry in series [4] is given as “no cell death”.
